The subject of assay [1] is Mus musculus. Nature of the assay: Ratio of effective dose of compound producing agonistic activity in presence and absence of norbinaltorphimine (2.5 pmol) upon intrathecal administration in mouse tail flick assay.
For assay [2], the system named is Mus musculus. Nature of the assay: Ratio of effective dose of compound producing agonistic activity in presence and absence of benzylidenenaltrexone (25 pmol) upon intrathecal administration in mouse tail flick assay.
In assay [3] the test system is Mus musculus. In words: Ratio of effective dose of compound producing agonistic activity in presence and absence of naltriben (50 pmol) upon intrathecal administration in mouse tail flick assay.

Structures are written as SMILES.

For `CN(C(=O)Cc1ccc(Cl)c(Cl)c1)C1CCCCC1N1CCCC1` (stereo not drawn), the ED50 Ratio in assay [1] came out at 4.23; in assay [2], 0.94; in assay [3], 0.81.
